Measurements from patent publication US20240350536A1, “Application of Bi-Phenols in Anti-ototoxicity and Hearing Protection” (Northwestern University, priority 2017, published 2024).

By UniProt entry, the sequences of proteins in these tests, tags left out.
UniProt Q9NTG7, whole entry, species assumed: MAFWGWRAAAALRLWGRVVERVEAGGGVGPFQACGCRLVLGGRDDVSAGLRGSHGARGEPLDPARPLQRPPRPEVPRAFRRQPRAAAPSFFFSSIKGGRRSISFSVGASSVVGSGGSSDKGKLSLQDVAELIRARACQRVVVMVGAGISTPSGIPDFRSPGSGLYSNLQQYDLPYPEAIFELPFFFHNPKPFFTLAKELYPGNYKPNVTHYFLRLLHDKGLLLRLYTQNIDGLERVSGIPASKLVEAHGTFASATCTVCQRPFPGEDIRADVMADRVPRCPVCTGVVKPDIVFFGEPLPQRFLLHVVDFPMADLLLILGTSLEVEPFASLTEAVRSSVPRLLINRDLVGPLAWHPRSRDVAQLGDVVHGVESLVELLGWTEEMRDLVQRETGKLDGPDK

Assays:
SIRT3 = SIRT3 (Homo sapiens, UniProt Q9NTG7); conditions: literature statement; cited from earlier work
mice = assay: Auditory Brainstem Response (ABR) threshold shift in cisplatin-treated mice; assay type: in vivo; conditions: summary of ABR study
[1] = tested on: outer hair cell (OHC) function; assay type: in vivo, mice; conditions: cisplatin 15 mg/kg
Method: FIG. 12A-12E. HNK protection against cisplatin-induced changes of DPOAE amplitude. […] The DPOAE shift, normalized to Day 0, of all the groups are plotted in (FIG. 12B to FIG. 12E). […] The results of the 2 animals in Cis 15 mg/kg group on Day 14 were both plotted in (FIG. 12B) as the dashed lines and open circles. […].
Distortion product oto-acoustic emissions (DPOAEs), which are an indication of outer hair cell (OHC) function, were measured in a separate series of experiments to estimate OHC protection by honokiol (HNK). (See FIG. 12A-12E). […] (See FIGS. 12D and 12E). After pre-treatment with HNK at a dosage of 10 mg/kg, the DPOAE shift was observed only at frequencies of 27 kHz and higher with a much smaller amplitude. (See FIG. 12D).

C=CCc1ccc(O)c(-c2ccc(O)c(CC=C)c2)c1 [honokiol, 2-(4-hydroxy-3-prop-2-enyl-phenyl)-4-prop-2-enyl-phenol]
activation of SIRT3 (SIRT3): directly activates SIRT3
protection of hearing threshold shift induced by cisplatin (mice): almost completely protects
DPOAE shift ([1]; HNK 20 mg/kg): No DPOAE shift
frequencies at which DPOAE shift was observed ([1]; HNK pre-treatment 10 mg/kg, much smaller amplitude): ≥ 27 kHz
